# Test results taken from paper PMC11952222, “Development and comparison of single FLT3-inhibitors to dual FLT3/TAF1-inhibitors as an anti-leukemic approach” (PLOS One, 2025).
# Amino acid sequences for entries named in this document (tags omitted). A change or cut given only in a name is not applied to a line headed by its entry. Residues count along the entry.
# UniProt P36888, 27-993 limits assumed: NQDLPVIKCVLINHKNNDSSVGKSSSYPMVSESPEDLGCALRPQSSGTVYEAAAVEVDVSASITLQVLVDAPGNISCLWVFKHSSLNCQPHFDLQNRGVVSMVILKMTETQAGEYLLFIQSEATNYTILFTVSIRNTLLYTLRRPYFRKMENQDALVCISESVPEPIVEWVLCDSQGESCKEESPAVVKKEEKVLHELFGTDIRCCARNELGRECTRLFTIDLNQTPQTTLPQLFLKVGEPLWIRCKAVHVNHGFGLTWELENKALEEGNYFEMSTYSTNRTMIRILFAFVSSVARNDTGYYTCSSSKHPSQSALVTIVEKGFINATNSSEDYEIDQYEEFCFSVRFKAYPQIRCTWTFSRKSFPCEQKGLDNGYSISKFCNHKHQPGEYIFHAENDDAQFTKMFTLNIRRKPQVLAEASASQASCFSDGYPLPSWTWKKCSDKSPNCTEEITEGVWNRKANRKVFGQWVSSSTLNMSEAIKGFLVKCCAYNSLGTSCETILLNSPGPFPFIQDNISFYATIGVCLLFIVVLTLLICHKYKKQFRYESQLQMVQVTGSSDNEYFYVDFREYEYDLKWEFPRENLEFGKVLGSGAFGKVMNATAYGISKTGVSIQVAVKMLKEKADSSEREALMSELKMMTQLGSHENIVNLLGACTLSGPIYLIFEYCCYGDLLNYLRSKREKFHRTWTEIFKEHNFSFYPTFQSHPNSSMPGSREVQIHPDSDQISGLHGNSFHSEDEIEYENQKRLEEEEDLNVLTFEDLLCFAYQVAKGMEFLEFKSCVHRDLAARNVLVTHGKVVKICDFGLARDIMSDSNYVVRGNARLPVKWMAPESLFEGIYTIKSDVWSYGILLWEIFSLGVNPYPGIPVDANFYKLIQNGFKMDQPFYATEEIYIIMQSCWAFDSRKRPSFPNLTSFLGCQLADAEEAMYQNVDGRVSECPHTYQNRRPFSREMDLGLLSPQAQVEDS
# UniProt P36888, 564-993 limits assumed: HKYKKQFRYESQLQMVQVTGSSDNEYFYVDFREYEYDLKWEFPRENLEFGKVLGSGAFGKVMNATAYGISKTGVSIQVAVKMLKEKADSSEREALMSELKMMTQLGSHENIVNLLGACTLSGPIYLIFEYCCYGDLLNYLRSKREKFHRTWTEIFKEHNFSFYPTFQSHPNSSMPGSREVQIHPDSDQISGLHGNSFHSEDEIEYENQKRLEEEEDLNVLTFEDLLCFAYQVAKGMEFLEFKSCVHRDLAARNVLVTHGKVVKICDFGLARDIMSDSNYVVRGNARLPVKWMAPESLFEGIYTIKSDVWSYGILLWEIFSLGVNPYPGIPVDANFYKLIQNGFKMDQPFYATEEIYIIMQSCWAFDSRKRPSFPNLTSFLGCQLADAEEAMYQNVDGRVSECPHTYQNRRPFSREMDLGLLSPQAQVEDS
# UniProt P36888, 27-993 D835V limits assumed: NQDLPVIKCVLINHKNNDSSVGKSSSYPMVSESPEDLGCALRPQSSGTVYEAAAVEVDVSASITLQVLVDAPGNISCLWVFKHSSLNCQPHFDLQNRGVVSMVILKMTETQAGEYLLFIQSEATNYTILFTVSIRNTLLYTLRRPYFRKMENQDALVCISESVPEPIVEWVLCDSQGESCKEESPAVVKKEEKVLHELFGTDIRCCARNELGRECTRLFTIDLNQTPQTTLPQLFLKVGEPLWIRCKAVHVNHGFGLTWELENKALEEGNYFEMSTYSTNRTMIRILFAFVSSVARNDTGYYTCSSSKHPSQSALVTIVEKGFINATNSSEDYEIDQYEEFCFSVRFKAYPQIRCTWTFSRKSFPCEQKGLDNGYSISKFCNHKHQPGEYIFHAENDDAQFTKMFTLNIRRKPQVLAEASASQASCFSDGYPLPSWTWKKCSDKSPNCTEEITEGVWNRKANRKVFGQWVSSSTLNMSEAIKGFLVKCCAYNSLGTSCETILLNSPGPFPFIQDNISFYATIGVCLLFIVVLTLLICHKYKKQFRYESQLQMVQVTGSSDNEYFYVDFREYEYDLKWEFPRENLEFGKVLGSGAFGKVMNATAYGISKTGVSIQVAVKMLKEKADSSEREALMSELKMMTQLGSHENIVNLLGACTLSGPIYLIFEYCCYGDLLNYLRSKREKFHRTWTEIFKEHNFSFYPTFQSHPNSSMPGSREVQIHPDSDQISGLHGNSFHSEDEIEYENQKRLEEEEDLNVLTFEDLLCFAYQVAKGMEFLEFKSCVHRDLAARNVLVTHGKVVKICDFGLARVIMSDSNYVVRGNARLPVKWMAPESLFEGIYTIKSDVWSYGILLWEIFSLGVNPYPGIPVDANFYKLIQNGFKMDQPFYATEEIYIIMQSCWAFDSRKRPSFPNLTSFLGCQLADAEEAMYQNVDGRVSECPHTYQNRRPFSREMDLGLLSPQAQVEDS
# UniProt P10721, 26-976 limits assumed: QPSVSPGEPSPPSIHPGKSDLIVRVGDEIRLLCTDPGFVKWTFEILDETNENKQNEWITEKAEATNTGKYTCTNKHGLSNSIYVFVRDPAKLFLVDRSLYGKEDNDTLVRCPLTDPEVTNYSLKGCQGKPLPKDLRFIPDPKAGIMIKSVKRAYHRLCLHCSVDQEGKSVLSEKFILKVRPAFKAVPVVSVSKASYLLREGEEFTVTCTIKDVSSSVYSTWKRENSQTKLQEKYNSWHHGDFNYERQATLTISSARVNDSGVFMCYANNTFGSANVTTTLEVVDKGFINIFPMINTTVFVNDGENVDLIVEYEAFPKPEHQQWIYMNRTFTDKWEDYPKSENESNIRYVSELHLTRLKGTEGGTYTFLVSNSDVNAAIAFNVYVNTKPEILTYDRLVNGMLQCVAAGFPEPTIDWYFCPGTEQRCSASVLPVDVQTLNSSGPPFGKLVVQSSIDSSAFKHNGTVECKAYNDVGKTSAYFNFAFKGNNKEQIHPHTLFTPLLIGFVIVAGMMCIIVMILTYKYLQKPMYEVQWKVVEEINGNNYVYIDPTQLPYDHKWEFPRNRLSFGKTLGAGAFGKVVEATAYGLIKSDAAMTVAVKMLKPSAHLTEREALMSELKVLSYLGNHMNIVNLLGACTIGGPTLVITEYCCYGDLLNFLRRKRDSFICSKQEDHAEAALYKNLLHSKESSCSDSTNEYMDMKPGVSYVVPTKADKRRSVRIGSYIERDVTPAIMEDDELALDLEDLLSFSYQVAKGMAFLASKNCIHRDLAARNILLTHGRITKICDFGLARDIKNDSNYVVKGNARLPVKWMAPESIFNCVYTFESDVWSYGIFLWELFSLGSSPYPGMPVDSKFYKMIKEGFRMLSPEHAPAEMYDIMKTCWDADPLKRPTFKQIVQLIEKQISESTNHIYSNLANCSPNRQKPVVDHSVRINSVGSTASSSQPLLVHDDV
# UniProt P09619, 33-1106 limits assumed: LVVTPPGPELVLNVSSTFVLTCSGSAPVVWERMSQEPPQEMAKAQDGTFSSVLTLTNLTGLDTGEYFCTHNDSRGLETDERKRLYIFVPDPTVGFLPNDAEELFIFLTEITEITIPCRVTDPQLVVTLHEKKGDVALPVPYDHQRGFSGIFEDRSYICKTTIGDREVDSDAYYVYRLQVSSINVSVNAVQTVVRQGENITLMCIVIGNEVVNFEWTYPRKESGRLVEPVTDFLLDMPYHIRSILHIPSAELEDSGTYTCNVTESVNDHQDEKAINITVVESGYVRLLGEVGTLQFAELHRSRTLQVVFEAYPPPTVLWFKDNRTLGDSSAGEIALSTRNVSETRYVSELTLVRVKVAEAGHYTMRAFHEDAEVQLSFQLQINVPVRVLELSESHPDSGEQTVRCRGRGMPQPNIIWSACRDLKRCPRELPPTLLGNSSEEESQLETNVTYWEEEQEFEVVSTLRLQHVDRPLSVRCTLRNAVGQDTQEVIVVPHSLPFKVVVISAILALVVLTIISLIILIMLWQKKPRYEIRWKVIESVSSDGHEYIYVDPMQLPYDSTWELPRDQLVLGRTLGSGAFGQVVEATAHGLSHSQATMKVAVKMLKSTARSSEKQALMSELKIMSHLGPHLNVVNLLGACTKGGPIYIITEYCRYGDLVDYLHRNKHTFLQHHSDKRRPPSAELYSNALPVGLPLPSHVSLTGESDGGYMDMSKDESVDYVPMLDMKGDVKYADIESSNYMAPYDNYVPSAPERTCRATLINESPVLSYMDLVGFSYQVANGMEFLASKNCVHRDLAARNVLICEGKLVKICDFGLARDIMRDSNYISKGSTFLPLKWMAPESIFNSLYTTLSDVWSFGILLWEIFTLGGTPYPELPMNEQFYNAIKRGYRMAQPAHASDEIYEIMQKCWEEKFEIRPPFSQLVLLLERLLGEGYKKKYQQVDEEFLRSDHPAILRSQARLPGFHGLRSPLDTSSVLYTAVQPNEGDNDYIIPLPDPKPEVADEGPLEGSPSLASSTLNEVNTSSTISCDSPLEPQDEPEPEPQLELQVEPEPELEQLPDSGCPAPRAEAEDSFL
# UniProt P21675, 1519-1628 limits assumed: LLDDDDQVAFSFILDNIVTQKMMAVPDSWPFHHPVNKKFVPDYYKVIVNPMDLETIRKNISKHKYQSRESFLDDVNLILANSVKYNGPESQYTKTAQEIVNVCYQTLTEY
# Several values for one entry are separate records, joined by “and”; a condition that tells them apart may be missing. Equal values may be shown once. Read-outs that look alike come from different tables or passages of the source.
# Experiments:
# FLT3(ITD,F691L) = assay: Eurofins/DiscoverX cell free kinase assay, percent control; settings: for per_control_1000nM FLT3(ITD,F691L): 1000 nM compound; for per_control_10000nM FLT3(ITD,F691L): 10000 nM compound
# FLT3(ITD,D835V) = assay: as above; settings: for per_control_1000nM FLT3(ITD,D835V): 1000 nM compound; for per_control_10000nM FLT3(ITD,D835V): 10000 nM compound
# FLT3(ITD) = assay: as above; settings: for per_control_1000nM FLT3(ITD): 1000 nM compound; for per_control_10000nM FLT3(ITD): 10000 nM compound
# FLT3_autoinhibited = FLT3_autoinhibited (Homo sapiens, UniProt P36888); assay: as above; settings: for per_control_1000nM FLT3_autoinhibited: 1000 nM compound; for per_control_10000nM FLT3_autoinhibited: 10000 nM compound
# KIT = KIT (Homo sapiens, UniProt P10721); assay: as above; settings: for per_control_1000nM KIT: 1000 nM compound; for per_control_10000nM KIT: 10000 nM compound
# PDGFRB = PDGFRB (Homo sapiens, UniProt P09619); assay: as above; settings: for per_control_1000nM PDGFRB: 1000 nM compound; for per_control_10000nM PDGFRB: 10000 nM compound
# FLT3(D835V) = FLT3(D835V) (Homo sapiens, UniProt P36888, D835V); assay: as above; settings: for per_control_1000nM FLT3(D835V): 1000 nM compound; for per_control_10000nM FLT3(D835V): 10000 nM compound
# FLT3 [1] = molecular target: T1, FLT3 (Homo sapiens, UniProt P36888); assay: as above; settings: for per_control_1000nM FLT3: 1000 nM compound; for per_control_10000nM FLT3: 10000 nM compound
# MOLM13 cells = assay: Cell viability, CellTiter Glo, MOLM13; settings: 72h
# DU4475 cells = assay: Cell viability, CellTiter Glo, DU4475; settings: 72h
# IGROV1 cells = assay: Cell viability, CellTiter Glo, IGROV1; settings: 72h
# TAF1(2) bromodomain = TAF1(2) bromodomain (Homo sapiens, UniProt P21675); assay: Eurofins/DiscoverX KdELECT, TAF1(2) bromodomain IC50; settings: read-out: TAF1(2) IC50, 11-point 3-fold dilution, top concentration 10,000 nM
# FLT3 [2] = molecular target: T1, FLT3; assay: Eurofins/DiscoverX KdELECT, FLT3 kinase IC50; settings: read-out: FLT3 IC50, 11-point 3-fold dilution, top concentration 10,000 nM
# HDQP1 cells = assay: Cell viability, CellTiter Glo, HDQP1; settings: read-out: HDQP1 IC50, individual dose-response curve (CellTiter Glo); 72h, one independent experiment per value
# TAF1(2) = TAF1(2) (Homo sapiens, UniProt P21675); assay: Eurofins/DiscoverX cell free bromodomain assay, percent control; settings: for per_control_1000nM TAF1(2): 1000 nM compound; for per_control_10000nM TAF1(2): 10000 nM compound
# [3] = read-out: MOLM13 IC50 (CellTiter Glo), mean of n = 3 independent experiments
# [4] = read-out: IGROV1 IC50 (CellTiter Glo), mean of n = 3 independent experiments
per_control_1000nM FLT3_autoinhibited (FLT3_autoinhibited),per_control_10000nM FLT3_autoinhibited (FLT3_autoinhibited),per_control_1000nM KIT (KIT),per_control_10000nM KIT (KIT),per_control_1000nM PDGFRB (PDGFRB),per_control_10000nM PDGFRB (PDGFRB),per_control_1000nM FLT3(D835V) (FLT3(D835V)),per_control_10000nM FLT3(D835V) (FLT3(D835V)),per_control_1000nM FLT3 (FLT3 [1]),per_control_10000nM FLT3 (FLT3 [1]),IC50 (MOLM13 cells; [3]),IC50 (TAF1(2) bromodomain),IC50 (FLT3 [2]),Compound,"per_control_1000nM FLT3(ITD,F691L) (FLT3(ITD,F691L))","per_control_10000nM FLT3(ITD,F691L) (FLT3(ITD,F691L))","per_control_1000nM FLT3(ITD,D835V) (FLT3(ITD,D835V))","per_control_10000nM FLT3(ITD,D835V) (FLT3(ITD,D835V))",per_control_1000nM FLT3(ITD) (FLT3(ITD)),per_control_10000nM FLT3(ITD) (FLT3(ITD)),IC50 (IGROV1 cells; [4]),also measured
5.5 percent control,0 percent control,0 percent control,0 percent control,0.25 percent control,0 percent control,2.4 percent control,1.8 percent control,0.2 percent control,0.05 percent control,316 nM,> 10 µM,< 1000 nM,COc1ccc(-c2cc(NC(=O)c3ccc(C(C)(C)C)cc3)n[nH]2)cc1Cl,63 percent control,35 percent control,80 percent control,23 percent control,0 percent control,0 percent control,13.6 µM,"IC50 (MOLM13 cells; read-out: MOLM13 IC50, individual dose-response curve (CellTiter Glo), one independent experiment per value, listed as 1245): 205 nM and 489 nM and 255 nM; IC50 (DU4475 cells; read-out: DU4475 IC50, individual dose-response curve (CellTiter Glo), one independent experiment per value, listed as 1245): 25.3 µM and 26.7 µM and > 30 µM; IC50 (IGROV1 cells; read-out: IGROV1 IC50, individual dose-response curve (CellTiter Glo), one independent experiment per value, listed as 1245): 16.2 µM and 16.1 µM and 8.7 µM; IC50 (HDQP1 cells): > 30 µM; per_control_1000nM TAF1(2) (TAF1(2)): 100 percent control; per_control_10000nM TAF1(2) (TAF1(2)): 81 percent control"
6 percent control,0.4 percent control,0 percent control,0.1 percent control,0.15 percent control,0.05 percent control,2.7 percent control,0.6 percent control,0.2 percent control,0.2 percent control,406 nM,> 10 µM,< 1000 nM,COc1ccc(-c2cc(NC(=O)c3ccc(C(C)(C)C)cc3)n[nH]2)cc1C,77 percent control,34 percent control,60 percent control,15 percent control,2.5 percent control,0 percent control,8.9 µM,"IC50 (MOLM13 cells; read-out: MOLM13 IC50, individual dose-response curve (CellTiter Glo), one independent experiment per value, listed as 1244): 253 nM and 622 nM and 342 nM; IC50 (DU4475 cells; read-out: DU4475 IC50 (CellTiter Glo), mean of n = 3 independent experiments): 18.8 µM; IC50 (DU4475 cells; read-out: DU4475 IC50, individual dose-response curve (CellTiter Glo), one independent experiment per value, listed as 1244): 15.8 µM and 17.5 µM and 23.2 µM; IC50 (IGROV1 cells; read-out: IGROV1 IC50, individual dose-response curve (CellTiter Glo), one independent experiment per value, listed as 1244): 17.5 µM and 7 µM and 2.1 µM; per_control_1000nM TAF1(2) (TAF1(2)): 88 percent control; per_control_10000nM TAF1(2) (TAF1(2)): 86 percent control"
